scFv variants of Ab-95 (light chain) against a SARS-CoV-2 spike peptide

All variants were tested on one target, the spike HR2 peptide PDVDLGDISGINAS (SARS-CoV-2).

Parent: Ab-95, a human scFv built as VH, a 15-residue (Gly4Ser)3 linker, VL. Only the CDRs of the light chain vary.
VH: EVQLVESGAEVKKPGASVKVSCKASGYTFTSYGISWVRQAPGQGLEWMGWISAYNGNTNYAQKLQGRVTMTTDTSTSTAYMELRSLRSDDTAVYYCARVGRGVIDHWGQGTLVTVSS
VL: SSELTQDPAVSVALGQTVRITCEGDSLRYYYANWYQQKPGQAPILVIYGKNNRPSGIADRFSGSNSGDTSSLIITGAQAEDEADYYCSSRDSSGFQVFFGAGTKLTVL

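Library AAYL52 holds single substitutions and randomly drawn double and triple substitutions in the CDRs. The scFvs were displayed on barcoded MATa yeast, the peptide on MATalpha yeast. Pairs that bind mate more often; barcode pairs of the diploids are counted by sequencing. Each replicate has its own calibration line, from reference interactions of the BCL2 family. Each pool was mated in three replicate cultures.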

Substitutions are numbered in sequence along the VL above, starting at 1 (not Kabat). Numbers give log10(Kd / nM), so 0 is 1 nM and 3 is 1 µM. Smaller is tighter. Replicates are averaged; those with no signal do not enter the mean. An entry "n.d." has no value in the source: the pair was not observed among the diploids in that replicate. This suggests poor binding but is not conclusive. Three control strains display no target. For library AAYL52, 28% of the pairings with them gave a signal, with a median of 3.91 and one signal in twenty below 2.90, so weak values seen in few replicates may be background. Also given: how often the same scFv was detected with the empty control strains, with their mean in brackets. For reference, the parent read 2.31 as the reference entry and 2.25 as a member of this library.

changes	log10 Kd, replicates	mean, log10 nM	empty controls
E23V/D25C/L27P	4.67 3.82 3.53	4.01	5 of 9 (4.24)
D25Y/R90P	3.10 3.31 2.91	3.11	3 of 9 (4.48)
G24T/Y31N/R53V	4.59 n.d. 3.05	3.82	3 of 9 (3.82)
L27D/Y29K/R53V	5.09 n.d. 3.79	4.44	1 of 9 (2.76)
Y30T/Y31V/F95D	2.28 2.61 2.54	2.48	8 of 9 (3.81)
G49M/S88I	n.d. n.d. n.d.	n.d.	0 of 9
Y29T/Y30L/F95G	3.67 3.87 n.d.	3.77	3 of 9 (4.19)
E23W/G24M/S93N	5.41 n.d. n.d.	5.41	1 of 9 (3.25)
N52I/S93L/G94D	4.10 n.d. n.d.	4.10	1 of 9 (4.21)
P54W/D91T/G94F	n.d. n.d. n.d.	n.d.	2 of 9 (3.61)
E23I/G24E/P54L	3.61 n.d. n.d.	3.61	3 of 9 (3.60)
N33D/G94I/V97M	4.47 5.38 3.91	4.59	5 of 9 (4.01)
R28S/P54K/D91L	n.d. n.d. n.d.	n.d.	0 of 9
G24I/Y29Q/R90P	n.d. n.d. n.d.	n.d.	3 of 9 (4.13)
E23S/K50A/V97T	2.49 2.41 1.81	2.23	4 of 9 (4.23)
N33F/G49T/Q96E	5.18 3.99 4.15	4.44	2 of 9 (3.70)
N51F/G94D/Q96F	2.95 4.77 n.d.	3.86	2 of 9 (3.79)
R90F/Q96M/V97M	n.d. n.d. n.d.	n.d.	2 of 9 (4.35)
G24R/N33A/Q96N	4.14 n.d. 3.55	3.85	2 of 9 (3.83)
Y29W/D91I/S92A	n.d. n.d. n.d.	n.d.	1 of 9 (4.60)
N33Q/S92F	n.d. n.d. n.d.	n.d.	1 of 9 (2.71)
E23L/S92N/G94S	n.d. n.d. n.d.	n.d.	2 of 9 (4.25)
S26K/A32W/F95Y	n.d. n.d. n.d.	n.d.	0 of 9
N33K/V97Y/F98I	n.d. 5.11 4.10	4.60	5 of 9 (4.02)
A32R/F95C	3.00 3.39 2.66	3.02	5 of 9 (4.15)
P54H/G94C/F98S	n.d. n.d. n.d.	n.d.	1 of 9 (2.83)
S26C/D91E/F98C	n.d. 5.47 2.69	4.08	3 of 9 (3.96)
A32R/R53T/Q96E	3.91 4.55 3.45	3.97	3 of 9 (3.51)
E23Y/Y29W/G49Y	n.d. n.d. n.d.	n.d.	0 of 9
S55A/S89D/G94S	2.98 2.16 2.53	2.56	3 of 9 (3.66)
G24N/S93N	4.20 n.d. 3.81	4.00	3 of 9 (3.72)

The measurements come from Engelhart et al. 2022 (doi:10.1038/s41597-022-01779-4) through the FLAb antibody collection.